Patent US20260242405A1, “N-DERIVATIZED SIALIC ACIDS AND RELATED SIALOSIDES” (THE REGENTS OF THE UNIVERSITY OF CALIFORNIA, priority 2023, published 2026)

Tests used:
[1] = biological target: N1-BR18 (IAV neuraminidase) (Influenza A virus, UniProt A0A0X9QTS2); assay: Fluorescence-based inhibition assay (substrate Neu5Acα2-3GalβMU, β-galactosidase coupled); format: biochemical, influenza A virus A/Brisbane/02/2018 (H1N1); conditions: inhibitor 8.0 μM
[2] = biological target: NB-Aus21 (IBV neuraminidase) (Influenza B virus, UniProt A0A1X9RX69); format: biochemical, influenza B virus B/Austria/1359417/2021; conditions: inhibitor 8.0 μM
[3] = biological target: N2-Dar21 (IAV neuraminidase) (Influenza A virus, UniProt A0A193ACB1); assay: Fluorescence-based inhibition assay (substrate Neu5Acα2-3GalβMU, β-galactosidase coupled); format: biochemical, influenza A virus A/Darwin/9/2021 (H3N2); conditions: inhibitor 8.0 μM; Example 3, Table 4
[4] = biological target: N2-Kan17 (IAV neuraminidase) (Influenza A virus, UniProt A0A193ACB1); assay: as above; format: biochemical, influenza A virus A/Kansas/14/2017 (H3N2); conditions: inhibitor 8.0 μM; Example 3, Table 4
[5] = substrate Neu5Acα2-3GalβMU 8.0 μM, Example 2, Table 2

## CC(=O)N[C@H]1[C@H]([C@H](O)[C@H](O)CO)OC(C(=O)O)=C[C@@H]1N=C(N)N [Zanamivir, 4-guanidino-2,3-dehydro-N-acetylneuraminic acid, reference compound]
[1]; [5]
  Percentage inhibition against N1-BR18 (IAV): 98.5 ± 0.1%
[1]; Example 3, Table 4
  percentage inhibition against N1-BR18: 99.6%
[2]; [5]
  Percentage inhibition against NB-Aus21 (IBV): 99.9 ± 0.0%
[2]; Example 3, Table 4
  percentage inhibition against NB-NB-Aus21: 99.1%
[3]
  percentage inhibition against N2-Dar21: 99.7%
[4]
  percentage inhibition against N2-Kan17: 95.6%
